Literature values, collected in patent US20220387358A1, “CERAMIDE ANALOG SACLAC MODULATES SPHINGOLIPID LEVELS AND MCL-1 SPLICING TO INDUCE APOPTOSIS IN ACUTE MYELOID LEUKEMIA” (University of Virginia Patent Foundation, priority 2019, published 2022).

Test system: FLT3
Conditions: FLT3-ITD-positive patients; cited from earlier work

CC(C)(C)c1cc(NC(=O)Nc2ccc(-c3cn4c(n3)sc3cc(OCCN5CCOCC5)ccc34)cc2)no1 [quizartinib]
composite complete remission: about 50%
patients achieving complete remission: about 5%
